# Data from US8012929B2, “Peptides directed for diagnosis and treatment of amyloid-associated diseases” (Tel Aviv University Future Technology Development L.P., priority 2002, dated 2011).
# Key:
# [1] = molecular target: T1, hIAPP1-37 (Homo sapiens, UniProt P10997); assay: Thioflavin T fluorescence assay of hIAPP fibrillization (sodium acetate buffer); type: biochemical; conditions: 4 μM hIAPP1-37, 40 μM inhibitor, 10 mM sodium acetate pH 6.5
# T1 construct: purchased CalBiochem (La Jolla Calif., USA)
# T1 sequence (P10997 34-70 limits assumed): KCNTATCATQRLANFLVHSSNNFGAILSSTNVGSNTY
# Protocol: Thioflavin T fluorescence assay—hIAPP fibrillization was monitored by Thioflavin T dye binding assay. hIAPP1-37 stock solution was diluted to a final concentration of 4 μM in 10 mM sodium acetate buffer (pH 6.5) with or without inhibitors (40 μM), and a final concentration of HFIP of 1% (vol). Immediately after dilution, sample was centrifuged for 20 minutes in 20,000×g at 4° C. and the supernatant fraction was used for fluorescence measurements. In every measurement ThT was added to a 1 ml sample at a final concentration of 3 μM and measurements were effected by using Perkin-Elmer (excitation 450 nm, 2.5 nm slit; emission 480 nm 10 nm slit). Background was subtracted from all samples.
# [2] = molecular target: T2, full-length IAPP polypeptide (Homo sapiens, UniProt P10997); assay: ThT fluorescence assay of IAPP fibril formation with inhibitory peptides (Tris buffer); type: biochemical; conditions: 4 μM IAPP, 40 μM inhibitory peptide, 142 hours of incubation
# T2 construct: purchased CalBiochem (La Jolla Calif., USA)
# T2 sequence (P10997 34-70 limits assumed): T1 sequence (P10997 34-70 limits assumed)
# Protocol: The ability of amyloidogenic peptides of IAPP, identified according to the teachings of the present invention to inhibit amyloid formation by the full-length polypeptide was tested by the addition of beta-breaker proline residues to the recognition sequence as set forth in the peptide sequence NFLVHPP (SEQ ID NO: 45). The degree of amyloid fibrils formation with and without the inhibitor was assessed using Thioflavin T (ThT) as molecular indicator. The degree of fluorescence of the ThT dye is directly correlated with the amount of amyloid fibrils in the solution [LeVine H 3rd. (1993) Protein Sci. 2:404-410. […] Fibril formation was determined by a ten fold dilution of the solutions into a solution that contained 3[…] thioflavin T (ThT) in 50 mM sodium phosphate pH 6.0 and determination of fluorescence at 480 nm with excitation at 450 nm using a LS50B spectroflurimeter (Perkin Elmar, Wellesley, Mass.). As a control 10 mM Tris buffer pH 7.2 were diluted into the ThT solution and fluorescence was determined as described.
# The degree of amyloid fibril formation with and without the Aib inhibitor was assessed using thioflavin T (ThT) as molecular indicator. The degree of fluorescence of the ThT dye is directly correlated with the amount of amyloid fibrils in the solution [LeVine H 3rd. […]
# The inhibitory peptides were assayed using standard ThT fluorescence assay (as described). […]
Substance,inhibition of IAPP fibrillization (ThT fluorescence at plateau) [1],inhibition of IAPP aggregation (ThT endpoint) [2]
D-Pro-D-Tyr (PY; D-amino acids) [EG17],effective inhibition,–
D-Trp-D-Pro (WP; D-amino acids) [EG31],inhibition potential,–
D-Tyr-D-Pro (YP; D-amino acids) [EG18],effective inhibition,significant inhibitory effect on IAPP aggregation
